These are literature values, as cited in publication PMC6529454, “Development of human cGAS-specific small-molecule inhibitors for repression of dsDNA-triggered interferon expression” (Nature Communications, 2019).

The data set deals with mouse macrophages. The settings on record: read-out: IC50 in mouse macrophages; cited from earlier work.

On to `Cc1nn(-c2nc3ccc(Cl)c(Cl)c3[nH]2)c(O)c1C1OC(=O)c2ccccc21` (stereo not shown), for which the IC50 was 700 nM.
